Laboratory results taken from US20150203579A1 (Regeneron, published 2015).

What was measured:
[1] = molecular target: PD-1 chimera: extracellular domain of human PD-1 with trans-membrane and cytoplasmic domains of human CD300a, … (human, UniProt Q9UGN4, in part); test: cell-based or functional assay
[2] = molecular target: T1, full length human PD-1 on HEK293/hPD-1 cells (human, UniProt Q15116); test: FACS, 100 nM mAb, HEK293/hPD-1 cells;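 also: antibodies incubated with cells for 15-30 min on ice, bound antibody detected through a secondary F(ab′)2 by flow cytometry, with parental HEK293 cells tested in parallel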
[3] = molecular target: T1, full length human PD-1 on HEK293/hPD-1 …; test: FACS dose response, HEK293/hPD-1 cells
[4] = molecular target: T2, recombinant human PD-1 dimer expressed with a C-terminal mouse IgG2a Fc tag (human); test: competition ELISA: 1.5 nM hPD-1-mFc to coated hPD-L1-hFc
T2 construct: also called hPD-1-mFc
T2 chain: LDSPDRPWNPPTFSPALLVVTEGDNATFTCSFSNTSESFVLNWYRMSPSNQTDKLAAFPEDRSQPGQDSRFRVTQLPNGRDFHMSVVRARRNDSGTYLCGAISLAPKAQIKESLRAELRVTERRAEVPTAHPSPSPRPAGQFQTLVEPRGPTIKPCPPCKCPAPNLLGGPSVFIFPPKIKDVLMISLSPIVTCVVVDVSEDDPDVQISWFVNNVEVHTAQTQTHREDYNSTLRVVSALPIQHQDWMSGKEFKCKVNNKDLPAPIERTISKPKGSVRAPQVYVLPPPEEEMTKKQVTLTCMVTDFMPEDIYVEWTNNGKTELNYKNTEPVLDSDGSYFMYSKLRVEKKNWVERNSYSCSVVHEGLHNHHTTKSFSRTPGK

[5] = molecular target: T2, recombinant human PD-1 dimer expressed …; test: BLI Octet: 100 nM hPD-1-mFc + 500 nM mAb to captured hPD-L1-hFc
[6] = molecular target: T3, recombinant human PD-1 expressed with a C-terminal myc-myc-hexahistidine tag (human); test: SPR (Biacore), mAb captured, hPD-1-MMH injected, 25 C;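 also: rate constants obtained by fitting sensorgrams to a 1:1 binding model, KD derived as kd/ka and half-life as ln2/(60·kd) in minutes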
T3 construct: also called hPD-1-MMH; human PD-1-MMH
T3 chain: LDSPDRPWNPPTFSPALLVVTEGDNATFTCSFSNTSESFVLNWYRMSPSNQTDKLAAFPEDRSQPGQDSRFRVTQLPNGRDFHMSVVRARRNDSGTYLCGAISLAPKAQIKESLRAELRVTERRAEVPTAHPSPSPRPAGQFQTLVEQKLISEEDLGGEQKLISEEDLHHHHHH

[7] = molecular target: T4, recombinant human PD-1 expressed with a C-terminal myc-myc-hexahistidine tag (human); test: SPR, mAb captured, 37C;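 also: rate constants from fitting sensorgrams to a 1:1 binding model, KD derived as kd divided by ka and half-life as ln2/(60·kd)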
T4 construct: monomeric; also called hPD-1-MMH; human PD-1-MMH
T4 chain: T3 chain

[8] = molecular target: T5, human PD-1 dimer (human PD-1-mFc or human PD-1-hFc) (human, UniProt Q15116 25-170); test: SPR, mAb captured, 25C;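 also: surface plasmon resonance on Biacore, PD-1 flowed over captured anti-PD-1 antibodies, rate constants from a 1:1 binding model fit, KD taken as kd/ka and t½ as ln2/(60·kd)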
T5 construct: also called hPD-1-mFc; hPD1-hFc
T5 chain: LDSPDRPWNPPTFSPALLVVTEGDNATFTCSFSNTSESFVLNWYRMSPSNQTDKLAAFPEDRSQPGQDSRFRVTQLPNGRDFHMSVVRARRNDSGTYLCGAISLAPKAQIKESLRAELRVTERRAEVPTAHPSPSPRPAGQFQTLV

[9] = molecular target: T5, human PD-1 dimer (human PD-1-mFc or …); test: SPR, mAb captured, 37C
[10] = molecular target: T6, recombinant cynomolgus monkey PD-1 expressed with a C-terminal myc-myc-hexahistidine tag (cynomolgus monkey (Macaca fascicularis)); test: SPR, mAb captured, 25C;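 also: rates from fitting Biacore data for PD-1 binding to anti-PD-1 antibodies with a 1:1 model, KD computed as koff/kon and t½ as ln2/(60·koff)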
T6 construct: monomeric; also called MfPD-1-MMH
T6 chain: T3 chain with D2E, V19L, T35A, Q67R, T144A

[11] = molecular target: T6, recombinant cynomolgus monkey PD-1 …; test: SPR, mAb captured, 37C

B1: H2aM7790N (antibody, V domains shown)
VH: EVQLVESGGGLVKPGGSLRLSCAASGFKFSNEWMSWVRQAPGKGLEWVGRIKSKTDGGTTDYAAPVKGRFTISRDDSKNTLYLQMNSLKTEDTAVYYCTTDQDFWSGYYTGADYYGMDVWGQGTMVTVSS
VL: [sequence of about 100 residues not given]
notes: human variable regions, mouse IgG2a Fc; also called H2M7790N
- Concentration (M) of Antibody at 150% activation [1]: 5.24e-09 M
- MFI [2]: 47300 MFI
- EC50 [3]: 0.171 nM
- Max Geom. Mean MFI @ 100 nM [3]: 19200 MFI
- % blocking at 200 nM antibody [4]: 74%
- IC50 [4]: 1.5 nM
- % Blocking [5]: 114%
- binding of the mixture (nm) [5]: -0.01 nm

B2: H2aM7790N (antibody, mouse IgG2a, V domains shown)
VH: B1 VH
VL: [sequence of about 100 residues not given]
notes: Human variable domains, mouse IgG2a Fc; also called H2M7790N
- Kd [6]: 17.8 nM
- koff [6]: 0.000823 s⁻¹
- kon [6]: 46300 M⁻¹ s⁻¹
- t½ [6]: 14 min

B3: H2aM7790N (antibody, mouse IgG2a, V domains shown)
VH: B1 VH
VL: [sequence of about 100 residues not given]
notes: Human variable regions, mouse IgG2a Fc; also called H2M7790N
- Kd [7]: 84.9 nM
- koff [7]: 0.0052 s⁻¹
- kon [7]: 61300 M⁻¹ s⁻¹
- t½ [7]: 2.2 min
- Kd [8]: 0.162 nM
- koff [8]: 3.02e-05 s⁻¹
- kon [8]: 186000 M⁻¹ s⁻¹
- t½ [8]: 383 min
- Kd [9]: 0.422 nM
- koff [9]: 8.49e-05 s⁻¹
- kon [9]: 201000 M⁻¹ s⁻¹
- t½ [9]: 136 min
- Kd [10]: 30.1 nM
- koff [10]: 0.000937 s⁻¹
- kon [10]: 31100 M⁻¹ s⁻¹
- t½ [10]: 12 min
- Kd [11]: 271 nM
- koff [11]: 0.00693 s⁻¹
- kon [11]: 25500 M⁻¹ s⁻¹
- t½ [11]: 1.7 min

Residue numbers refer to the chain shown, from its start.
